Earlier results in patent US8158153B2, “Nanoparticulate bisphosphonate compositions” (Alkermes Pharma Ireland Limited, priority 2005, dated 2012).

Settings: patients; clinical use

Q: For `NCCCC(O)(P(=O)([O-])O)P(=O)(O)O.O.O.O.[Na+]` [Alendronate sodium, (4-amino-1-hydroxybutylidene) bisphosphonic acid monosodium salt trihydrate], which “side effects / adverse effects” value is on record?
A: esophagitis and/or esophageal ulcers
